Settings: use of glycerin in laminarin formulations

Laminarin
Laminarin solubility in water-based formulations: improve the laminarin solubility
